The text below walks through data of US20240272164A1, “METHODS FOR CLASSIFYING TUMORS AND USES THEREFOR” (THE UNIVERSITY OF QUEENSLAND, priority 2015, published 2024).

The subject of data set [1] is SKBR3 cells. As to the kind of experiment: Immune-dependent cytotoxicity assay with CD56-enriched or CD56-depleted PBMCs. In kind it is cell-based, human. The conditions noted are these: FIG. 6A. An excerpt:
To better understand the dynamin inhibition-mediated increase in the sensitivities of breast cancer cell line to the mAb-mediated immune-dependent cytotoxicity, it was important to identify the PBMC cell subset which contributed to this effect in the in vitro assay. NK cells (Chung et al., 2014; Schnueriger et al., 2011), which express FcγRIII with high binding affinity for IgG1 were chosen to be examined in the context of mAb-mediated immune-dependent cytotoxicity assays by using CD56-depleted or enriched PBMCs a effector cells as opposed to unsorted PBMCs. […] Moreover, a comparison of the efficacy of mAbs which bind to same antigen, and display distinct IgG domains (IgG1 and IgG2) was made.
Approximately 4.0×10^7 PBMCs were isolated as described and concentrated by centrifugation at 1000×g for 10 min and resuspended into medium as described above. PBMCs were stained with anti-human CD56 conjugated Allophycocyanin (APC) antibody (Affymetrix, eBiosciences; Santa Clara, USA) in accordance with the manufacturer's instructions (Affymetrix, eBiosciences). […] Cells were sorted using Beckman and Coulter Moflo® Astrios cell sorter. Approximately 4.0×10^7 unstained cells were maintained separately. […] The same was conducted for conditions containing CD56-cell populations. […] Tubes were incubated at 37° C. for 4-hours.

In data set [2] the test system is HER2 positive breast cancer. The conditions noted are these: clinical, literature (Narayan et al., 2009; Wolff et al., 2007); cited from earlier work.
The test system of data set [3] is MDA-MB-468 cells. In kind it is cell-based, human. As to conditions: cell line MDA-MB-468, Table 2. As to the method: (§1) Tumor cells were cultured as described above.
Data set [4] has as its system HCC1569 cells. The experiment in a line: Immune-dependent cytotoxicity (ADCC) assay with PBMC effector cells, HCC1569 target cells. In kind it is cell-based, human. As to the method: as §1
In data set [5] the test system is SKBR3 cells. As to the kind of experiment: Immune-dependent cytotoxicity (ADCC) assay with PBMC effector cells, SKBR3 target cells. In kind it is cell-based, human. As for the experimental part:
as §1

Data set [6] deals with BT474 cells. The experiment in a line: Immune-dependent cytotoxicity (ADCC) assay with PBMC effector cells, BT474 target cells.
Data set [7] has as its system MDA-MB-231 cells. The experiment in a line: Immune-dependent cytotoxicity (ADCC) assay with PBMC effector cells, MDA-MB-231 target cells.

With “Trastuzumab: therapeutic mAb (humanized) which binds the extracellular domain of HER2”, the “Specific cell death of SKBR3 cells treated with Trastuzumab” value in data set [1] (CD56-enriched fractionated PBMC population, vs untreated controls, Trastuzumab 60 μg/mL) was “increased in comparison to untreated controls”. Also, the “SKBR3 cell death with Trastuzumab” value in data set [1] (CD56 depleted PBMCs) is “negligible”. In addition, the “Patients with HER2 positive breast cancer who benefit from Trastuzumab” value in data set [2] is given as “less than 35%”. Moreover, the “Therapeutic antibody Sensitive/Resistant” value in data set [3] is listed as “Resistant”; in data set [4] (cell line HCC1569, Table 2) it was “Resistant”; in data set [5] (cell line SKBR3, Table 2) it was “Sensitive”; in data set [6] (cell line BT474, Table 2), “Sensitive”; in data set [7] (cell line MDA-MB-231, Table 2), “Resistant”. For the same substance, the “Sensitivity to Trastuzumab-mediated cytotoxicity (specific target cell death)” value in data set [4] (HCC1569 cells + PBMC, FIG. 2C) is “insensitive”. Besides, the “Sensitivity to Trastuzumab mediated cytotoxicity in the presence of PBMCs (specific target cell death)” value in data set [5] (SKBR3 cells + PBMC, compared with un-treated controls, FIG. 2A) was “highly and significantly sensitive”. In data set [6] (BT474 cells + PBMC, FIG. 2B), the “Sensitivity to Trastuzumab-mediated immune-dependent cytotoxicity” value is on record as “sensitive”. Also, the “Sensitivity to Trastuzumab treatment (immune dependent cytotoxicity assay)” value in data set [7] (MDA-MB-231 cells (HER2 negative control) + PBMC, FIG. 2D) was “considered insensitive”.
